Columns and labels:
[1] = tested on: cells isolated from seminiferous tubules of ICR immature (7-day-old) mice; test: Effect of hormones and retinoic acid on development of mouse spermatogenesis in vitro in methylcellulose culture system (qPCR of markers); type: cell-based; settings: FSH 25 U/ml from the beginning of the culture, cells from normal mice, 4 weeks
Method: Cells were enzymatically isolated from seminiferous tubules of ICR mice (which were developed by the Institute of Cancer Research, also called CD-1) immature mice (7-day-old mice). These cells were cultured in vitro in methylcellulose culture system essentially as described in the “General Materials and Experimental Methods” section above, with some modifications to the culture medium as described below.
(§1) Briefly, cells were cultured (2×10^5 cells/well/500 μl) in MEM medium which contained sodium bicarbonate 7.5%, L-glutamine 200 mM, non-essential amino acids 1%, penicillin/streptomycin and gentamicin 10 mg/ml, and were incubated over 2 nights in 24 wells plate at 37° C., 5% CO2. The nonadherent cells were collected and cultured ([…] cells/well/500 μl) in methylcellulose (42%; R&D, Minneapolis, USA) [as a three-dimension (3D) culture system], which contained the StemPro-34 medium (Gibco, USA) enriched with: 10% KSR (knockout serum replacement, Gibco, USA) and the following growth factors: Glial cell-derived neurotrophic factor (GDNF; 10 ng/ml; Biolegend), Leukemia inhibitory factor (LIF; 10 ng/ml; Biolegend), epidermal growth factors (EGF; 20 ng/ml; Biolegend, CA, USA), bFGF (basic fibroblast growth factor) (10 ng/ml; Biolegend).
Cells were cultured for 4 weeks. […]

[2] = tested on: cells from the seminiferous tubules of busulfan-treated immature (7-day-old) ICR mice; test: Effect of FSH on spermatogenesis in vitro in MCS, cells from busulfan-treated mice (mimicking azoospermic syndrome); type: cell-based, mouse; settings: FSH 25 U/ml from the beginning of the culture; cells from busulfan (45 mg/kg)-treated mice; four weeks
Method: as §1
After two weeks of culture, various concentrations of testosterone (T) such as 10^−8 M, 10^−7 M or 10^−6 M (as shown in FIG. 8A), or retinoic acid (“RA”, such as 10^−8 M, 10^−7 M or 10^−6 M as shown in FIG. 8C) were added to the cultures. After additional two weeks of culture (total culture of four weeks) cells were collected from the in vitro culture system, and examined for different markers of spermatogenesis: pre-meiotic markers such as: VASA, CD9, meiotic markers such as: CREM and BOULE and post-meiotic markers such as ACROSIN by qPCR analysis. […]

Substance: FSH: a gonadotropin, a glycoprotein polypeptide hormone
- expression of the meiotic marker CREM [1]: increased
- expression of the meiotic/post-meiotic marker ACROSIN [1]: increased
- expression of the meiotic marker CREM [2]: significantly increased
- expression of the meiotic/post-meiotic marker ACROSIN [2]: significantly increased

Source: patent US20200199527A1, “METHODS OF MATURATION OF HUMAN SPERMATOGONIUM” (B.G. Negev Technologies & Applications Ltd., at Ben-Gurion …, priority 2017, published 2020)
